# In US20240336606A1 (Suzhou Zelgen Biopharmaceuticals Co., Ltd., priority 2020, published 2024):
# Tested on: MIA PaCa-2 tumor cells
# Experiment: Anti-tumor pharmacodynamic evaluation, MIA PaCa-2 subcutaneous xenograft
# Design: species or system nude mice
# Details: mouse, in vivo
# Description: 100 μL of a suspension containing 5×10^6 MIA PaCa-2 tumor cells was subcutaneously inoculated into the right posterior abdomens of nude mice. The health of the mice was monitored daily, and measurements were started when tumors grew to be palpable. The tumor volume was calculated as follows: 0.5×L×W^2, where L and W represent the length and width of the tumor, respectively. When the tumors grew to about 100 mm^3, the mice were randomized into groups. The mice were intragastrically administered a corresponding dose (50 mg/kg) of compound suspension in CMC-Na twice daily, and their general states were monitored at the same time. The tumors were measured 3 times a week, and the body weight was measured twice a week.
smiles,measurement,setting,value
"COc1cc2nc(C)nc(N[C@H](C)c3cc(N)cc(C(F)(F)F)c3)c2cc1O[C@H]1CCOC1 [BI3406, reference compound]",% TGI (tumor growth inhibition),,75.7%
same,TV (mm^3) (tumor volume) Day 21,,223 mm^3
same,TV (mm^3) (tumor volume) Day 0,50 mg/kg,103 mm^3
